This passage reports Selectivity Index results from ChEMBL document CHEMBL4725292 (J Med Chem, 2020).

This assay deals with Bromodomain-containing protein 4 (Homo sapiens), O60885 [UNDEFINED MUTATION]. Briefly: Selectivity index, […] for His6-thr-tagged BRD4 BD1 (1 to 477 residues)/BD2 Y390A mutant (unknown origin) to pIC50 for His6-tagged BRD4 BD2 (1 to 477 residues)/BD1 Y97A mutant (unknown origin).
In the case of `Cc1cc2c(-c3ccco3)cnc(N[C@@H]3CCNC[C@H]3C(=O)NC3CCCCC3)c2[nH]c1=O` (racemic), the Selectivity Index was 630. The figure for `Cc1cc2c(-c3ccco3)cnc(N[C@@H]3CCNC[C@H]3C(=O)NC3CCCCC3)c2[nH]c1=O` is 630; for `Cc1cc2c(-c3ccco3)cnc(N[C@H]3CCNC[C@@H]3C(=O)NC3CCCCC3)c2[nH]c1=O` it is 6.
